{"sequences": {"note": "Sequences of proteins named here, by UniProt entry; tags and fusion partners are left off.", "UniProt Q96PD7, whole entry": "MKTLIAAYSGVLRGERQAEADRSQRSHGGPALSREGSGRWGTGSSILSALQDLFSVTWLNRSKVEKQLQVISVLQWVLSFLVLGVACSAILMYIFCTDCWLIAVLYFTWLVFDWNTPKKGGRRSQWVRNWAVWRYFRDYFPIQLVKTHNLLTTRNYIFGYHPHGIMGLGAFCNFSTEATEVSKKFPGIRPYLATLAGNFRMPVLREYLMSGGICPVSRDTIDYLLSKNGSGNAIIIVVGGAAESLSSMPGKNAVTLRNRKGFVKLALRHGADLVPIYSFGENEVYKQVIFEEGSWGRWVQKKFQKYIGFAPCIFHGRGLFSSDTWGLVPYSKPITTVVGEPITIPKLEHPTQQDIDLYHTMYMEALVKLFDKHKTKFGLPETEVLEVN"}, "source": "patent US9296745B2", "about": "“Diacylglycerol acyltransferase 2 inhibitors” (Pfizer Inc., priority 2012, dated 2016)", "target": "Human DGAT2 (hDGAT2) (Homo sapiens (Human), UniProt Q96PD7)", "assay": "In vitro DGAT2 assay, IC50 determination with hDGAT2 membrane fraction", "assay_type": "biochemical", "settings": "read-out: DGAT2 IC50; geometric mean; background for complete inhibition of DGAT2 obtained with 50 μM (1R,2R)-2-({3′-Fluoro-4′-[(6-fluoro-1,3-benzothiazol-2-yl)amino]-1,1′-biphenyl-4-yl}carbonyl)cyclopentanecarboxylic acid"}
{"smiles": "O=C([C@@H]1CCCN(c2ccc3nc(-c4ccnc(C(F)(F)F)n4)[nH]c3n2)C1)N1CCCC1", "values": [{"measurement": "IC50", "result": 187, "unit": "nM"}]}
